Measurements: US10918633B2, “Method of treating coronavirus” (MyMD Pharmaceuticals, Inc., priority 2015, dated 2021)

The chains behind the UniProt entries cited, without tags or fusion partners.
UniProt P21397, whole entry, species assumed: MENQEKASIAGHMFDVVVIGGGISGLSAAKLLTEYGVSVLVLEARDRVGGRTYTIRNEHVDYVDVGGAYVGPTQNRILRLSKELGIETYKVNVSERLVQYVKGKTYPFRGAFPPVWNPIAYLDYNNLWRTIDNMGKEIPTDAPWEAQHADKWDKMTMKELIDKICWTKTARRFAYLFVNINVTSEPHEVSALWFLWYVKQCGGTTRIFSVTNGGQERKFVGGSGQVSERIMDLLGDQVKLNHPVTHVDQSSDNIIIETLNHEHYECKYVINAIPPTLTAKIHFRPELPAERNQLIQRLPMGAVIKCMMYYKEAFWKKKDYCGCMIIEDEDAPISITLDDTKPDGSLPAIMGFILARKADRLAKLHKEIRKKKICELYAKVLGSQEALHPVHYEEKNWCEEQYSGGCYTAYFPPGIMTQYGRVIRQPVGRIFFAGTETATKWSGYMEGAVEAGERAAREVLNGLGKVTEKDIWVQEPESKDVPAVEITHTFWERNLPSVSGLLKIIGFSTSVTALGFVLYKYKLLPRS

Target: T1, MAO-A (Homo sapiens, UniProt P21397)
T1 construct: purchased
Test: MAO-Glo luminescent assay, MAO-A inhibition
Type: biochemical
Settings: compared with myosmine, anatabine, anabasine, nornicotine; FIG. 1
Text: This example describes experiments for determining monoamine oxidase (MAO) inhibition for isomyosmine and other alkaloids. MAOs are enzymes located on the outer membrane of mitochondria and are involved in the catabolism of monoamine neurotransmitters. There are two well-characterized isoenzymes: MAO-A, which predominantly catabolizes serotonin and norepinephrine, and MAO-B, which preferentially catabolizes benzylamine and phenylethylamine. Dopamine and tyramine are metabolized by both isoforms.
To detect the activity of MAO, a luminescent method (MAO-Glo Assay kit, from Promega, Cat #V1401) was used. In this method, a MAO substrate (a derivative of beetle luciferin provided in the kit) is mixed with the compound to be tested (in this case, myosmine and control compounds). Then, the MAO enzymes (either A or B, purchased separately) are added to the mixture and incubated with the reaction for 1 hour at room temperature. The MAO enzymes, if not inhibited by the test compound, will convert the substrate into methyl ester luciferin. Finally, a luciferin detection reagent (provided by the kit) is added (20 minutes at room temperature) to stop the MAO reaction and convert methyl ester luciferin into D-luciferin. […] The luminescent signal is measured and recorded using a luminometer. […]

Structure (SMILES): C#CCN(C)CCCOc1ccc(Cl)cc1Cl [clorgyline, reference compound]
- inhibition of the enzymatic activity of MAO-A (in words, curve position): greatly shifted leftward
